The record followed here is patent publication US20110257084A1.

This assay deals with GLP-1 receptor, the receptor of insulin-secreting cells (INS-1 cells) (UniProt P32301). Briefly: competitive radioligand binding on INS-1 cells; displacement of 30 pM 125I-exendin-4 (9-39), gamma counting.

The substance exendin-4 (peptide) showed an EC50 of 0.9 nM.

The term EC50 denotes the midpoint of the concentration-response curve. High values mean lower potency in that assay, low ones higher potency in that assay.
